In ChEMBL document CHEMBL1133613, “1-[4-(3-Phenylalkyl)phenyl]-2-aminopropanes as 5-HT(2A) partial agonists” (J Med Chem, 2000):

Target: T1, 5-hydroxytryptamine receptor 2C (Rattus norvegicus, UniProt P08909)
T1 sequence (P08909 whole entry): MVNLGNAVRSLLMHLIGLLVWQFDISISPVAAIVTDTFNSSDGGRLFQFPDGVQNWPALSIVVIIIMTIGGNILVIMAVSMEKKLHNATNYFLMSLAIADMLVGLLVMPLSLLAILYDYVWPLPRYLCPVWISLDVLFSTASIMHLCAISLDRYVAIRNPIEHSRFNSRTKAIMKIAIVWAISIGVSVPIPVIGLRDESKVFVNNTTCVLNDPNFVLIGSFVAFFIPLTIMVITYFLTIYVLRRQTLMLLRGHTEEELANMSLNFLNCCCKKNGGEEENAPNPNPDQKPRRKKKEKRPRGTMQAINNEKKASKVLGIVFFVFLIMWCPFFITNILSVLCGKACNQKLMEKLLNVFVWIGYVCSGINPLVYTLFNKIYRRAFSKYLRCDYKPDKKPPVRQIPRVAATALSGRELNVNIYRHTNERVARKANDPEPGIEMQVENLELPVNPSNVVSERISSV
Assay: Displacement of [3H]mesulergine from A9 cells stably expressing rat 5-hydroxytryptamine 2C receptor
Assay type: cell-based

COc1cc(CC(C)N)c(OC)cc1Br (stereo unspecified) [BROLAMFETAMINE]
Ki: 64 nM
